Measured values from patent publication US7094557B2, “2-Methyl-3-butenyl-1-pyrophosphoric acid salt and agent for treating lymphocytes” (Chugai Seiyaku Kabushiki Kaisha, priority 1999, dated 2006).

System: human Vγ2Vδ2 type T cells
Assay: Proliferation of Vγ2Vδ2 type T cells in treated peripheral blood mononuclear cells (ratio in CD3 cells)
Format: cell-based
Details: interleukin-2 10 U/ml solely (comparative treatment), day 11, volunteer G
Description: After 12 days, the cells were collected.
10 ml of the peripheral blood collected from a healthy volunteer G was subjected to Ficoll-Paque specific gravity centrifugation to purify the peripheral blood mononuclear cells and they were suspended in a Yssel's medium. The cells were apportioned into a 24-hole plate so that the number of the cells becomes a concentration of 2.5 million/1.5 ml/hole, and then, according to the above-mentioned method, treatments 1 to 5 were conducted as shown in Table 1. Among them, treatment 1 is a treatment using only a culture medium and treatment 2 solely uses interleukin-2, and both treatments are for comparison. […] On the day 11 after conducting the treatment, a ratio of Vγ2Vδ2 type T cells in existing CD3 cells was calculated.

## Interleukin-2: cofactor added at 10 U/ml; used solely in comparative treatment 2
  Vγ2Vδ2 type T cells/CD3 cells: 6.9%
